In PubChem BioAssay AID524 (The Scripps Research Institute Molecular Screening Center, 2006):
This is a selection; strong and weak results do not stand in their true shares. Some of these compounds have results that are not shown, active ones among them. Calls of active or inactive are those of the source.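 How the source made its calls: active means inhibition above the screen-wide mean inhibition plus 3 SD (cut at about 21% in these data); inactive means the rest.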

target: cAMP-dependent protein kinase catalytic subunit alpha (Homo sapiens) (UniProt P17612); assay: PKA catalytic subunit kinase inhibition – biochemical, ATP-depletion luminescence, Kemptide substrate, primary screen (AID 524); settings: PKA Kemptide phosphorylation, Kinase-Glo ATP luminescence; at 6 µM; stronger effect = higher value

| Structure (SMILES) | inhibition |
| --- | --- |
| O=C(OC1CN2CCC1CC2)C(CO)(c1ccccc1)c1ccccc1 (configuration not stated) | inactive: -0.2% |
| CN(C)c1cccc(C(=O)NCC2(N(C)C)CCCCC2)c1 | inactive: -4.9% |
